In general, Tmax refers to the time at which the peak concentration occurs.

This note sets out measurements from US8685916B2, “Opioid prodrugs with heterocyclic linkers” (Signature Therapeutics, Inc., priority 2011, dated 2014).

Data set [1] can be described thus: Pharmacokinetics following PO administration of Compound KC-55 to rats. Particulars: male, Sprague Dawley, rat, plasma, 10 mg/kg.
Data set [2] can be described thus: Oral administration of Compound KC-55 co-dosed with Compound 109 to rats. The settings on record: male, Sprague Dawley, rat, plasma, 36 umol/kg.

In the case of `COc1ccc2c3c1O[C@H]1C(=O)CC[C@@]4(O)[C@@H](C2)N(C)CC[C@]314` [Oxycodone, oxycodone], the Tmax in data set [1] amounted to 37.5 ± 25.8 min; in data set [2] it was 37.5 min.
